The experiment has as its target protease for activating the blood clotting factor VII (human) (UniProt Q14520). Put plainly: cell-based or functional assay.

The source of these data is patent US20080175878A1.

Regarding aprotinin (from UniProt P00974 36-93), the FVII activation factor in the control (protease + aprotinin, then FVII), protease solution diluted 1:5 (x times control) came out at 1; the FVII activation factor in the control (protease + aprotinin, then FVII), protease solution diluted 1:10 (x times control) is 1; the FVII activation factor in the control (protease + aprotinin, then FVII), protease solution diluted 1:20 (x times control) came to 1; the FVIII activity (% of control), protease incubated with aprotinin prior to contact with FVIII, 0 min amounted to 98%. Also, the FVIII activity (% of control), protease incubated with aprotinin prior to contact with FVIII, 5 min worked out at 97%; the FVIII activity (% of control), protease incubated with aprotinin prior to contact with FVIII, 10 min stood at 97%; the FVIII activity (% of control), protease incubated with aprotinin prior to contact with FVIII, 20 min was determined as 96%; the FVIIa content (Staclot FVIIa-rTF test) after protease + aprotinin, then FVII (mlU of FVIIa/ml) was 11.
